The subject of one series is hTERT-HMEC. Kind of series: percentage of EdU-negative (G0-arrested) nuclei per well, 72 h; higher = more G0 arrest. The note with it: reference: sequence is the full UniProt precursor, the tested protein was the secreted form or ectodomain.
In a further series the test system is MCF7. The series is described as above. Conditions: reference: sequence is the full UniProt precursor, the tested protein was the secreted form or ectodomain.
The mark [1] stands for this setting: protein concentration 0.0357143 µM.
[2] abbreviates: protein concentration 0.357143 µM.
[3] abbreviates: protein concentration 0.00864 µM.
The mark [4] stands for this setting: protein concentration 0.0864 µM.
Where [5] appears, read: protein concentration 0.03125 µM.
Setting [6] is: protein concentration 0.3125 µM.
The mark [7] stands for this setting: protein concentration 0.027535 µM.
Setting [8] is: protein concentration 0.27535 µM.
The mark [9] stands for this setting: protein concentration 0.0354286 µM.
Setting [10] is: protein concentration 0.354286 µM.
Setting [11] is: protein concentration 0.0225 µM.
Where [12] appears, read: protein concentration 0.0127775 µM.
[13] abbreviates: protein concentration 0.127775 µM.

± gives the standard deviation of the averaged measurements.
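Further: secreted proteins added to cultured cells, EdU pulse at the end, nuclei found by Hoechst imaging, EdU status from nuclear versus surrounding ring intensity ratio, PBS as neutral control.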

Take “MQIPQAPWPVVWAVLQLGWRPGWFLDSPDRPWNPPTFSPALLVVTEGDNATFTCSFSNTSESFVLNWYRMSPSNQTDKLAAFPEDRSQPGQDCRFRVTQLPNGRDFHMSVVRARRNDSGTYLCGAISLAPKAQIKESLRAELRVTERRAEVPTAHPSPSPRPAGQFQTLVVGVVGGLLGSLVLLVWVLAVICSRAARGTIGARRTGQPLKEDPSAVPVFSVDYGELDFQWREKTPEPPVPCVPEQTEYATIVFPSGMGTSSPARRGSADGPRSAQPLRPEDGHCSWPL”: the “percentage of EdU-negative” value came out at 5.19 ± 0.065% in the series on hTERT-HMEC (setting [1]), 6.2 ± 1.8% in the series on hTERT-HMEC (setting [2]), 23.7 ± 1.5% in the series on MCF7 (setting [1]) and 25.1 ± 1.9% with MCF7 (setting [2]).
For “MELSGATMARGLAVLLVLFLHIKNLPAQAADTCPEVKVVGLEGSDKLTILRGCPGLPGAPGPKGEAGVIGERGERGLPGAPGKAGPVGPKGDRGEKGMRGEKGDAGQSQSCATGPRNCKDLLDRGYFLSGWHTIYLPDCRPLTVLCDMDTDGGGWTVFQRRMDGSVDFYRDWAAYKQGFGSQLGEFWLGNDNIHALTAQGSSELRVDLVDFEGNHQFAKYKSFKVADEAEKYKLVLGAFVGGSAGNSLTGHNNNFFSTKDQDNDVSSSNCAEKFQGAWWYADCHASNLNGLYLMGPHESYANGINWSAAKGYKYSYKVSEMKVRPA”, the “percentage of EdU-negative” value in the series on hTERT-HMEC (setting [3]) was determined as 4.68 ± 0.66%; with hTERT-HMEC (setting [4]), 6.17 ± 0.52%; with MCF7 (setting [3]) it was 24.4 ± 3.5%; in the series on MCF7 (setting [4]), 26.02 ± 0.077%.
On to “MEICRGLRSHLITLLLFLFHSETICRPSGRKSSKMQAFRIWDVNQKTFYLRNNQLVAGYLQGPNVNLEEKIDVVPIEPHALFLGIHGGKMCLSCVKSGDETRLQLEAVNITDLSENRKQDKRFAFIRSDSGPTTSFESAACPGWFLCTAMEADQPVSLTNMPDEGVMVTKFYFQEDE”, for which the “percentage of EdU-negative” value in the series on hTERT-HMEC (setting [5]) amounted to 4.62 ± 0.45%; with hTERT-HMEC (setting [6]), 5.82 ± 0.83%; in the series on MCF7 (setting [5]), 24.1 ± 2.4%; with MCF7 (setting [6]), 26.9 ± 1%.
In the case of “MAAGTAVGAWVLVLSLWGAVVGAQNITARIGEPLVLKCKGAPKKPPQRLEWKLNTGRTEAWKVLSPQGGGPWDSVARVLPNGSLFLPAVGIQDEGIFRCQAMNRNGKETKSNYRVRVYQIPGKPEIVDSASELTAGVPNKVGTCVSEGSYPAGTLSWHLDGKPLVPNEKGVSVKEQTRRHPETGLFTLQSELMVTPARGGDPRPTFSCSFSPGLPRHRALRTAPIQPRVWEPVPLEEVQLVVEPEGGAVAPGGTVTLTCEVPAQPSPQIHWMKDGVPLPLPPSPVLILPEIGPQDQGTYSCVATHSSHGPQESRAVSISIIEPGEEGPTAGSVGGSGLGTLALALGILGGLGTAALLIGVILWQRRQRRGEERKAPENQEEEEERAELNQSEEPEAGESSTGGP”, the “percentage of EdU-negative” value with hTERT-HMEC (setting [7]) was determined as 4.83 ± 0.15%; with hTERT-HMEC (setting [8]) it was 7.27 ± 1.5%; with MCF7 (setting [7]) it was 26.7 ± 0.38%; in the series on MCF7 (setting [8]) it was 28.1 ± 2.4%.
In the case of “MPSSVSWGILLLAGLCCLVPVSLAEDPQGDAAQKTDTSHHDQDHPTFNKITPNLAEFAFSLYRQLAHQSNSTNIFFSPVSIATAFAMLSLGTKADTHDEILEGLNFNLTEIPEAQIHEGFQELLRTLNQPDSQLQLTTGNGLFLSEGLKLVDKFLEDVKKLYHSEAFTVNFGDTEEAKKQINDYVEKGTQGKIVDLVKELDRDTVFALVNYIFFKGKWERPFEVKDTEEEDFHVDQVTTVKVPMMKRLGMFNIQHCKKLSSWVLLMKYLGNATAIFFLPDEGKLQHLENELTHDIITKFLENEDRRSASLHLPKLSITGTYDLKSVLGQLGITKVFSNGADLSGVTEEAPLKLSKAVHKAVLTIDEKGTEAAGAMFLEAIPMSIPPEVKFNKPFVFLMIEQNTKSPLFMGKVVNPTQK”, the “percentage of EdU-negative” value in the series with hTERT-HMEC (setting [5]) was 5.72 ± 0.47%; in the series on hTERT-HMEC (setting [6]) it was 5.777 ± 0.052%; in the series with MCF7 (setting [5]), 25.2 ± 2.4%; with MCF7 (setting [6]) it was 26 ± 2.8%.
Consider “MAWFALYLLSLLWATAGTSTQTQSSCSVPSAQEPLVNGIQVLMENSVTSSAYPNPSILIAMNLAGAYNLKAQKLLTYQLMSSDNNDLTIGQLGLTIMALTSSCRDPGDKVSILQRQMENWAPSSPNAEASAFYGPSLAILALCQKNSEATLPIAVRFAKTLLANSSPFNVDTGAMATLALTCMYNKIPVGSEEGYRSLFGQVLKDIVEKISMKIKDNGIIGDIYSTGLAMQALSVTPEPSKKEWNCKKTTDMILNEIKQGKFHNPMSIAQILPSLKGKTYLDVPQVTCSPDHEVQPTLPSNPGPGPTSASNITVIYTINNQLRGVELLFNETINVSVKSGSVLLVVLEEAQRKNPMFKFETTMTSWGLVVSSINNIAENVNHKTYWQFLSGVTPLNEGVADYIPFNHEHITANFTQY”, for which the “percentage of EdU-negative” value came out at 4.8 ± 0.28% in the series with hTERT-HMEC (setting [9]), 7.15 ± 0.68% in the series with hTERT-HMEC (setting [10]), 24.3 ± 1.3% in the series with MCF7 (setting [9]) and 25.8 ± 0.51% in the series with MCF7 (setting [10]).
As to “MRASSFLIVVVFLIAGTLVLEAAVTGVPVKGQDTVKGRVPFNGQDPVKGQVSVKGQDKVKAQEPVKGPVSTKPGSCPIILIRCAMLNPPNRCLKDTDCPGIKKCCEGSCGMACFVPQ”, the “percentage of EdU-negative” value in the series with hTERT-HMEC (setting [11]) was 5.968 ± 0.017%; with hTERT-HMEC (protein concentration 0.225 µM), 6.79 ± 1.1%; in the series with MCF7 (setting [11]), 29 ± 1.3%; in the series with MCF7 (protein concentration 0.225 µM) it was 26.3 ± 1.7%.
“MIILIYLFLLLWEDTQGWGFKDGIFHNSIWLERAAGVYHREARSGKYKLTYAEAKAVCEFEGGHLATYKQLEAARKIGFHVCAAGWMAKGRVGYPIVKPGPNCGFGKTGIIDYGIRLNRSERWDAYCYNPHAKECGGVFTDPKQIFKSPGFPNEYEDNQICYWHIRLKYGQRIHLSFLDFDLEDDPGCLADYVEIYDSYDDVHGFVGRYCGDELPDDIISTGNVMTLKFLSDASVTAGGFQIKYVAMDPVSKSSQGKNTSTTSTGNKNFLAGRFSHL”: the “percentage of EdU-negative” value in the series with hTERT-HMEC (setting [12]) stood at 4.79 ± 0.52%; in the series with hTERT-HMEC (setting [13]) it was 5.86 ± 1.9%; in the series on MCF7 (setting [12]) it was 25.8 ± 1.6%; in the series on MCF7 (setting [13]), 28.1 ± 2.9%.
As for “MHLLAILFCALWSAVLAENSDDYDLMYVNLDNEIDNGLHPTEDPTPCACGQEHSEWDKLFIMLENSQMRERMLLQATDDVLRGELQRLREELGRLAESLARPCAPGAPAEARLTSALDELLQATRDAGRRLARMEGAEAQRPEEAGRALAAVLEELRQTRADLHAVQGWAARSWLPAGCETAILFPMRSKKIFGSVHPVRPMRLESFSACIWVKATDVLNKTILFSYGTKRNPYEIQLYLSYQSIVFVVGGEENKLVAEAMVSLGRWTHLCGTWNSEEGLTSLWVNGELAATTVEMATGHIVPEGGILQIGQEKNGCCVGGGFDETLAFSGRLTGFNIWDSVLSNEEIRETGGAESCHIRGNIVGWGVTEIQPHGGAQYVS”, the “percentage of EdU-negative” value stood at 4.76 ± 0.38% in the series with hTERT-HMEC (setting [1]), 6.46 ± 0.83% in the series on hTERT-HMEC (setting [2]), 25.5 ± 0.38% in the series on MCF7 (setting [1]) and 23.7 ± 1.3% in the series with MCF7 (setting [2]).
In the case of “MEQGKGLAVLILAIILLQGTLAQSIKGNHLVKVYDYQEDGSVLLTCDAEAKNITWFKDGKMIGFLTEDKKKWNLGSNAKDPRGMYQCKGSQNKSKPLQVYYRMCQNCIELNAATISGFLFAEIVSIFVLAVGVYFIAGQDGVRQSRASDKQTLLPNDQLYQPLKDREDDQYSHLQGNQLRRN”, the “percentage of EdU-negative” value worked out at 5.25 ± 0.78% in the series with hTERT-HMEC (setting [11]), 4.58 ± 0.78% in the series with hTERT-HMEC (protein concentration 0.225 µM), 24.7 ± 3.7% in the series on MCF7 (setting [11]) and 24.7 ± 0.87% in the series with MCF7 (protein concentration 0.225 µM).
“MLFLLLPLLAVLPGDGNADGLKEPLSFHVTWIASFYNHSWKQNLVSGWLSDLQTHTWDSNSSTIVFLCPWSRGNFSNEEWKELETLFRIRTIRSFEGIRRYAHELQFEYPFEIQVTGGCELHSGKVSGSFLQLAYQGSDFVSFQNNSWLPYPVAGNMAKHFCKVLNQNQHENDITHNLLSDTCPRFILGLLDAGKAHLQRQVKPEAWLSHGPSPGPGHLQLVCHVSGFYPKPVWVMWMRGEQEQQGTQRGDILPSADGTWYLRATLEVAAGEAADLSCRVKHSSLEGQDIVLYWEHHSSVGFIILAVIVPLLLLIGLALWFRKRCFC”: the “percentage of EdU-negative” value in the series with hTERT-HMEC (setting [11]) amounted to 4.5 ± 0.6%; with hTERT-HMEC (protein concentration 0.225 µM), 7.24 ± 0.28%; with MCF7 (setting [11]), 26.7 ± 0.86%; in the series with MCF7 (protein concentration 0.225 µM) it was 28.1 ± 2.5%.

For the origin of these results see the supplement of paper PMC11316812.
